Reported water solubility values for industrial, environmental and drug-like chemicals

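The OPERA project collected these measurements from public sources as training and test data for property models. A listed value is a point estimate from one report or more. Method and conditions are not stated for these values. The measured form (salt, isomer or mixture) is not always the one drawn. Some entries may be limits or estimates that an upstream database listed as plain numbers.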

Solubility in water is on a log10 molar scale (set defined at 25 °C).
Cells with "–" have no entry in this list.

| SMILES | name | log S (log10 mol/L) |
|---|---|---|
| COC(=O)c1csc(C)c1S(=O)(=O)NC(=O)n1nc(OC)n(C)c1=O | Thiencarbazone-methyl | -2.951 |
| Cc1cc(NC(=O)N(C)C)cc(C)c1Br | N'-(4-BROMO-3,5-DIMETHYLPHENYL)-N,N-DIMETHYLU* | -3.67 |
| Cc1ccc(C2(O)CCN(CCCC(=O)c3ccc(F)cc3)CC2)cc1 | Moperone | -4.347 |
| O=[N+]([O-])c1ccc(Br)cc1 | Benzene, 1-bromo-4-nitro- | -3.25 |
| CCCNC(C)C(=O)Nc1ccccc1C (centres undefined) | Prilocaine | -2.83 |
| O=c1cnc2cncnc2[nH]1 | 7(8H)-Pteridinone | -2.125 |
| NC(=O)Nc1ccccc1F | (2-Fluorophenyl)urea | -1.08 |
| Brc1ccc(-c2ccc(Br)cc2)cc1 | 1,1'-Biphenyl, 4,4'-dibromo- | -7.74 |
| C=CCNc1nc(NCC=C)nc(N2CCN(C(c3ccc(F)cc3)c3ccc(F)cc3)CC2)n1 | Almitrine | -4.521 |
| NC1NC(=O)NCC1CC(=O)O (centres undefined) | (4-Amino-2-oxohexahydro-5-pyrimidinyl)acetic acid | -1.711 |
| O=c1[nH]c(=O)c2ccccc2[nH]1 | 2,4(1H,3H)-Quinazolinedione | -3.099 |
| CC1CCCCC1=O (centres undefined) | 2-Methylcyclohexanone | -0.94 |
| O=Cc1c(O)ccc2ccccc12 | 1-Naphthalenecarboxaldehyde, 2-hydroxy- | -3.894 |
| C#C[C@]1(O)CC[C@H]2[C@@H]3CCC4=CC(=O)CC[C@@H]4[C@H]3C(=C)C[C@@]21CC | Etonogestrel | -4.644 |
| Nc1nc(/C(=N/OC(c2ccccc2)(c2ccccc2)c2ccccc2)C(=O)N[C@H]2C(=O)N3C(C(=O)OC(c4ccccc4)c4ccccc4)=C(CO)CS[C@@H]23)ns1 | – | -7.607 |
| CCCNC(=O)NS(=O)(=O)c1ccc(Cl)cc1 | Chlorpropamide | -3.165 |
| C=CCNC(=S)NNc1ccc([N+](=O)[O-])cc1 | – | -2.911 |
| CCOC(=O)/C(=C/c1ccc2c(c1)OCO2)N=CO | Ethyl 2-formamido (dioxo-phenyl) acrylate | -2.139 |
| O=C(NCCCCCCNC(=O)OCCCCO)OCCCCO | Carbamic acid, hexamethylenedi-, bis(4-hydroxybutyl) ester | -1.929 |
| CC(C)CCCCCC(=O)OCC(COC(=O)CCCCCC(C)C)(COC(=O)CCCCCC(C)C)COC(=O)CCCCCC(C)C | – | -7.144 |
| O=C(O)CN(C(=S)SCc1ccccc1)c1ccccc1 | S-Benzyl-N-(dithiocarboxy)-N-phenylglycine | -3.922 |
| O=C(O)[C@@H]1C[C@@H](O)CN1 | (4R)-4-hydroxy-L-proline | 0.439 |
| O=S1(=O)CC(Cl)C(Cl)C1 (centres undefined) | 3,4-Dichlorosulfolane | -1.93 |
| CCCCCCCCCC(=O)N(C)C | N,N-Dimethyldecanamide | -2.759 |
| O=C(OCC1CCCO1)c1ccccc1 (centres undefined) | 2-Furanmethanol, tetrahydro-, benzoate | -2.323 |
| O=C(Nc1ccccc1)NC1CC1 | N-Cyclopropyl-N'-phenylurea | -1.9 |
| CC1(C)S[C@@H]2[C@H](NC(=O)C3(N)CCCCC3)C(=O)N2[C@H]1C(=O)O | Cyclacillin | -2.255 |
| CCC(=O)C(=O)O | 2-Oxobutyric acid | 0.067 |
| O=C(Nc1ccccc1)c1cc(O)c(O)c(O)c1 | Gallanilide | -2.089 |
| CCNC(=O)OCC | Ethyl ethylcarbamate | 0.555 |
| COc1ccc(C(=O)O)c([N+](=O)[O-])c1OC | 3,4-dimethoxy-2-nitrobenzoic acid | -2.356 |
| CC(=O)OC[C@@H](OC(C)=O)[C@H]1OC(OC(C)=O)[C@H](OC(C)=O)[C@H]1OC(C)=O (stereo partly drawn) | D-Glucofuranose pentaacetate | -2.662 |
| CCOC(=O)CN(C)C(=O)COC(=O)c1ccccc1OC(C)=O | – | -2.546 |
| CC(=O)Nc1nc(=S)ss1 | N-(3-Thioxo-3H-1,2,4-dithiazol-5-yl)acetamide | -2.381 |
| CCCCCCCCCCOC1CCS(=O)(=O)C1 (centres undefined) | Thiophene, 3-(decyloxy)tetrahydro-, 1,1-dioxide | -3.709 |

Excerpt, the opening 4 entries:

SMILES	name	log S (log10 mol/L)
COC(=O)c1csc(C)c1S(=O)(=O)NC(=O)n1nc(OC)n(C)c1=O	Thiencarbazone-methyl	-2.951
Cc1cc(NC(=O)N(C)C)cc(C)c1Br	N'-(4-BROMO-3,5-DIMETHYLPHENYL)-N,N-DIMETHYLU*	-3.67
Cc1ccc(C2(O)CCN(CCCC(=O)c3ccc(F)cc3)CC2)cc1	Moperone	-4.347
O=[N+]([O-])c1ccc(Br)cc1	Benzene, 1-bromo-4-nitro-	-3.25

Source: data files of OPERA 2.9 (Mansouri et al.), github.com/kmansouri/OPERA.